Test results as given in patent publication US20230151014A1 (Repare Therapeutics Inc., priority 2020, published 2023).
Structures can show the parent of a compound that is named as a salt. Where two headings read alike, the source gives them in different places.

Biological target: T1, recombinant human Myt1 (Homo sapiens, UniProt Q99640)
T1 construct: full length PKMYT1 recombinant human protein expressed in insect cells
T1 sequence (Q99640 1-499): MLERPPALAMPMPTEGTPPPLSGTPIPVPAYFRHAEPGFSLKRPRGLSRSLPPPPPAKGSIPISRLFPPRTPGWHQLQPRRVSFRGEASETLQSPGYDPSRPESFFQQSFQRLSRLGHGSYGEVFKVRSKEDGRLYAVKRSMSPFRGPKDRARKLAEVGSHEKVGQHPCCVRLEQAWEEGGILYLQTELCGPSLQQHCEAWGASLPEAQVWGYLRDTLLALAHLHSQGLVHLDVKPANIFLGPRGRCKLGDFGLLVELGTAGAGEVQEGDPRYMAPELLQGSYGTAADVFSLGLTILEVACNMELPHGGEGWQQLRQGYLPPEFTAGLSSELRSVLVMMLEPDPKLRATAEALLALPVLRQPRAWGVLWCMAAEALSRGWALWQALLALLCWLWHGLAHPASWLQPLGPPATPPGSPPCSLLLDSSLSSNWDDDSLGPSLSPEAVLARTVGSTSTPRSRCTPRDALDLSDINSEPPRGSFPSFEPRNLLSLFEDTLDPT
Assay: Myt1 enzymatic assay (ADP-Glo kinase assay, IC50 and % max inhibition)
Type: biochemical

Row | SMILES | IC50 (recombinant human Myt1 18 nM, ATP 10 μM, ADP-Glo, read-out: Myt1 IC50) | IC50
1 | Cc1ccc(O)cc1-n1c(N)c(C(N)=O)c2nc(-c3ncccn3)ccc21 [Compound 23, 2-amino-1-(5-hydroxy-2-methyl-phenyl)-5-pyrimidin-2-yl-pyrrolo[3,2-b]pyridine-3-carboxamide] | 2470 nM | 
2 | Cc1ccc(O)cc1-n1c(N)c(C(N)=O)c2nc(C3=CCCNC3)ccc21 [Compound 27, 2-amino-1-(5-hydroxy-2-methyl-phenyl)-5-(1,2,3,6-tetrahydropyridin-5-yl)pyrrolo[3,2-b]pyridine-3-carboxamide HCl salt] |  | 604 nM
